The record followed here is patent US4609725A, “Cardiac atrial peptides” (Merck & Co., Inc., priority 1984, dated 1986).

Assay [1] concerns serotonin contracted rat aortae. The class given is cell-based. From the text: (§1) Under the conditions described above, conversion of non-iodinated ANF peptide fragment to the iodinated peptide was approximately 48%, based on the absorbance of the respective HPLC fractions and by amino acid analysis.
For assay [2], the system named is serotonin contracted rabbit aortae. The class given is cell-based.
Text: as §1

The IC50 is the concentration needed to halve the response being measured. Read a high IC50 as lower potency. For `CC[C@H](C)[C@@H]1NC(=O)[C@H](CCCNC(=N)N)NC(=O)[C@H](CC(=O)O)NC(=O)[C@H]([C@@H](C)CC)NC(=O)[C@H](CCCNC(=N)N)NC(=O)CNC(=O)CNC(=O)[C@H](Cc2ccccc2)NC(=O)[C@@H](NC(=O)[C@H](CO)NC(=O)[C@H](CO)NC(=O)[C@H](CCCNC(=N)N)NC(=O)[C@@H](N)CCCNC(=N)N)CSSC[C@@H](C(=O)N[C@@H](CC(N)=O)C(=O)N[C@@H](CO)C(=O)N[C@@H](Cc2ccccc2)C(=O)N[C@@H](CCCNC(=N)N)C(=O)N[C@@H](Cc2ccc(O)cc2)C(=O)O)NC(=O)CNC(=O)[C@H](CC(C)C)NC(=O)CNC(=O)[C@H](CO)NC(=O)[C@H](CCC(N)=O)NC(=O)[C@H](C)NC(=O)CNC1=O` [non-iodinated ANF peptide fragment, reference compound], the IC50 in assay [1] was determined as 0.85 nM; in assay [2] it was 0.55 nM.
